This is a selection; strong and weak results do not stand in their true shares. Active and inactive are the calls of the source. Rule as the data show it: active = survival enhancement above about 18%; inactive = the rest.
Assay: compounds raising survival of dissociated human iPSCs – cell-based, ATPlite luminescence, primary screen (AID 602274);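 also: cells exposed to compounds for 16 hours before the ATP read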
Conditions: hiPSC single-cell survival, at 20 µM, hits give high values, 100% = ROCK inhibitor wells, 0% = DMSO

| SMILES | survival enhancement |
| --- | --- |
| CN(C)C(=O)Oc1noc2ccccc12 | inactive: -0.1% |
| CC(NC(=O)COC(=O)C(O)(c1ccccc1)c1ccccc1)c1ccccc1 (stereo not drawn) | inactive: -0.2% |
| Cc1ccccc1OP(=O)(Nc1ccccn1)Oc1ccccc1C | inactive: -0.7% |
| CC(=O)NC(SC(=S)N(CC(C)C)CC(C)C)C(Cl)(Cl)Cl (stereo not drawn) | inactive: -1.2% |
| Cc1ccc(OP(=O)(Nc2ccccn2)Oc2ccc(C)cc2)cc1 | inactive: -0.3% |
| COC(=O)c1cc2c(s1)N=C(c1ccccc1)N(C)P2(=O)N1CCOCC1 (stereo not drawn) | inactive: -2.2% |
| CCC(=O)N1C2C3N(C(=O)CC)C1C1N(C(=O)CC)C(C(N1C(=O)CC)N3C(=O)CC)N2C(=O)CC | inactive: 6.6% |
| O=C(OC1CN2CCC1CC2)c1ccccc1 (stereo not drawn) | inactive: -0.3% |
| O=P1(N(CCCl)CCCl)OCCC2CCCCN21 (stereo not drawn) | inactive: 1.9% |
| O=C(NC1CCS(=O)(=O)C1)NP(=S)(Oc1ccccc1)Oc1ccccc1 (stereo not drawn) | inactive: -1.9% |
| CCNC(=S)/N=C(\N)N[N+](=O)[O-] | inactive: -0.3% |
| Cc1ccc(NP(=O)(Oc2cccc(C)c2)Oc2cccc(C)c2)nc1 | inactive: 0.5% |
| c1ccc(-c2nn[nH]n2)c(-c2nn[nH]n2)c1 | inactive: 1.7% |
| CC(=O)Nc1ccc(Oc2c([N+](=O)[O-])cc([N+](=O)[O-])cc2[N+](=O)[O-])cc1 | inactive: 0% |
| CC(=O)Nc1ccc([As](=O)(O)O)c(O)c1 | inactive: 0% |
| COC(=O)C1(C)COP(=O)(NCc2ccccc2)OC1 (stereo not drawn) | inactive: 3.4% |
| CC(=O)c1ccc(N2CC2c2ccncc2)cc1 (stereo not drawn) | inactive: 0.7% |
| N#C/C(=C\c1ccc(N(CCBr)CCBr)cc1)C(N)=O | inactive: 0.5% |
| C[C@H]1OP(=O)(Oc2ccccc2)C[C@@H]2O[C@@H]21 (stereo partly drawn) | inactive: -3.7% |
| C[C@@H]1C=CCP(=O)(Oc2ccccc2)O1 (stereo partly drawn) | inactive: -0.6% |
| Cc1ccccc1CN(C)C(=O)COC(=O)C(O)(c1ccccc1)c1ccccc1 | inactive: -0.4% |
| CCc1cc(O)c([N+](=O)[O-])c(C)c1[N+](=O)[O-] | inactive: -2% |
| CC(C)(C)C(=O)NC(Sc1ccccc1)C(Cl)(Cl)Cl (stereo not drawn) | inactive: 2.2% |

| SMILES | survival enhancement |
| --- | --- |
| CCOc1ccc(C2=NCC(CBr)S2)cc1 (stereo not drawn) | inactive: 2.1% |
| O=P1(Nc2nc3ccc(Cl)cc3s2)COc2ccccc2O1 (stereo not drawn) | inactive: -0.2% |
| O=[N+]([O-])C1C(O)C(O)C([N+](=O)[O-])C(O)C1O (stereo not drawn) | inactive: 1.2% |
| Nc1cc(N)c2nonc2c1[N+](=O)[O-] | inactive: 0% |
| CC(C)CC(=O)NC(Sc1ccc(Cl)cc1)C(Cl)(Cl)Cl (stereo not drawn) | inactive: 1.7% |
| O=C(NC(Sc1ccncn1)C(Cl)(Cl)Cl)c1ccccc1 (stereo not drawn) | inactive: -1.1% |
| Oc1ccccc1CNc1ccccn1 | inactive: 1% |
| Cc1ccc(OP(=O)(Nc2nccs2)Oc2ccc(C)cc2)cc1 | inactive: -0.5% |
| COc1ccccc1OP(=O)(Nc1ccc(C)cn1)Oc1ccccc1OC | inactive: 0.3% |
| CN1CCCC(OC(=O)C(c2ccccc2)c2ccccc2)C1 (stereo not drawn) | inactive: 1.3% |
| Clc1ccc(Cl)c(NC2=NCC(CBr)S2)c1 (stereo not drawn) | inactive: -0.2% |
| NC(=O)c1cc([N+](=O)[O-])cc([N+](=O)[O-])c1N | inactive: -0.5% |
| Cc1ccc(N/C(=N/P(=O)(N2CCOCC2)N2CCOCC2)N2CCOCC2)cc1 | inactive: -0.6% |
| CN(C(=O)Cc1ccc(Cl)c(Cl)c1)[C@H]1CCCC[C@H]1N1CCCC1 | inactive: -2.8% |
| CCN(N=Nc1nonc1N)c1nonc1N | inactive: 1.5% |
| Nc1cccc2ccc([As](=O)(O)O)cc12 | inactive: -0.4% |
| CN(C(=O)Cc1ccc(Cl)c(Cl)c1)[C@H]1CCCC[C@@H]1N1CCCC1 | inactive: -2.4% |
| Cc1ccc(NP(=O)(Oc2ccccc2F)Oc2ccccc2F)nc1 | inactive: 0.2% |
| Cc1cc(SC(NC(=O)c2ccc(F)cc2)C(Cl)(Cl)Cl)ncn1 (stereo not drawn) | inactive: -0.2% |
| CCOP(=O)(Nc1ccccc1)OCC | inactive: 1.3% |
| CCCC1OP(N)(=O)OCC1CC (stereo not drawn) | inactive: 1.3% |
| CC(=O)Nc1ccc([As](=O)(O)O)cc1 | inactive: -0.7% |
| O=C(O)c1ccccc1[As](=O)(O)O | inactive: 0.5% |

| SMILES | survival enhancement |
| --- | --- |
| O=P(Nc1nc2ccc(Cl)cc2s1)(c1ccccc1)c1ccccc1 | inactive: -0.6% |
| CN(C)P(=O)(N(C)C)n1c(Nc2ccccc2)nnc1-c1ccccc1 | inactive: -1.4% |
| COC(=O)C1(C)COP(=O)(Nc2ccccc2)OC1 (stereo not drawn) | inactive: -1.6% |
| O=[N+]([O-])c1cccc(NC2=NCC(CBr)S2)c1 (stereo not drawn) | inactive: -0.4% |
| O=C(O)CNc1ccc([As](=O)(O)O)cc1 | inactive: 1.1% |
| CC(C)(C)C(=O)NC(Sc1ccncn1)C(Cl)(Cl)Cl (stereo not drawn) | inactive: 2% |
| O=[N+]([O-])c1ncn(CCn2ncnc2[N+](=O)[O-])n1 | inactive: -1% |
| O=C(Nc1cc([As](=O)(O)O)ccc1O)c1ccccc1 | inactive: -0.5% |
| O=P1(N(CCCl)CCCl)OCCCS1 (stereo not drawn) | inactive: -0.4% |
| CN(C)C(=O)OCCc1n(C)cc[n+]1C | inactive: -2.7% |
| CC(C)c1nc(Nc2ccccc2)n(P(=O)(N(C)C)N(C)C)n1 | inactive: 0.5% |
| CC(C)=N/N=C(\N)N[N+](=O)[O-] | inactive: 0% |
| c1cc(-c2nn[nH]n2)ccc1-c1nn[nH]n1 | inactive: 4.8% |
| C[N+]1=C2C=CC=CC=C2SC12C([N+](=O)[O-])=CC([N+](=O)[O-])=C[C-]2[N+](=O)[O-] (stereo not drawn) | inactive: 0.6% |
| Nc1ccc([As](=O)(O)c2ccc(N)cc2)cc1 | inactive: -0.2% |
| CCN(/C(=N/P(=O)(N1CCOCC1)N1CCOCC1)N1CCOCC1)c1ccc(OC)cc1 | inactive: 4.7% |
| CC(=O)N1C2C3N(C(C)=O)C1C1N(C(C)=O)C(C(N1C(C)=O)N3C(C)=O)N2C(C)=O | inactive: 4.2% |
| O=[N+]([O-])c1cccc2n[nH]nc12 | inactive: 4.3% |
| O=[N+]([O-])c1cc([N+](=O)[O-])c(CCNc2ccccc2)c([N+](=O)[O-])c1 | inactive: -0.2% |
| CCc1nc2c(n1)c1c(non1O)c1c2no[n+]1[O-] | inactive: -5.1% |
| Cc1ccc(NP(=O)(Oc2ccccc2)Oc2ccccc2)nc1 | inactive: -1% |
| COc1ccc(C2=NCC(CBr)S2)cc1 (stereo not drawn) | inactive: -0.5% |

Source: PubChem BioAssay AID602274 (Sanford-Burnham Center for Chemical Genomics, 2012)
